3 compounds from patent publication US9340577B2, “HLA binding motifs and peptides and their uses” (priority 1992, dated 2016) can be followed below.

The chains behind the UniProt entries cited, without tags or fusion partners. Where a name states a change or a piece, a line headed by the entry shows the natural chain unless it says otherwise. Residues count along the entry.
UniProt P01903, 26-254 limits assumed: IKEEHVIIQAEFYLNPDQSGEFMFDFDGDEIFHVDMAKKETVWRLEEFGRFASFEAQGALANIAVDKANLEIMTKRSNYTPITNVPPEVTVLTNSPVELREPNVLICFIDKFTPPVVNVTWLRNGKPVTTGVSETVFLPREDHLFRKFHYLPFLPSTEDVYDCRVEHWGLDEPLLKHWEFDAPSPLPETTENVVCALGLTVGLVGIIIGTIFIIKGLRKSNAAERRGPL

Structures are written as SMILES. pIC50: −log10 of the molar value.

One experiment concerns the target HLA-A1 (A*0101) (Homo sapiens, UniProt P04439, A114D/A174V/A182V/D101N/D185E/E176A/E190D/L180R/Q94H/R68K/S129P/T187R/V100A/V91M/W191G). Particulars: read-out: Binding affinity A*0101.
In a further experiment the target is A*3002 (Homo sapiens, UniProt P04439, D101N/D140H/D185E/E176R/F33S/G80R/H175R/K168Q/Q94H/R138E/R41S/V100E). Kind of experiment: biochemical. Format: binding. Particulars: read-out: Binding affinity A*3002.
The target of another experiment is DRB1*0301 (Homo sapiens, UniProt P01903+P01911, A100K/A102G/A103R/A169T/F55Y/I96L/K41T/L162R/M171V/P40S/Q125H/Q178H/Q39Y/R42S/S66N/T106N/T262R/W38E/Y61H). Nature of the experiment: biochemical. The experiment is classed as binding.
For another experiment, the target named is A*2902 (Homo sapiens, UniProt P04439, A270S/D101N/D185E/E176V/E277Q/E87Q/F33T/G231S/H175R/I121M/I218V/I322F/K168Q/L300P/L318F/M331R/P208A/P217A/Q86L/T323A/T345S/V100A/V358M). Kind of experiment: biochemical. Format: binding.

Turning to `CC(C)C[C@H](NC(=O)[C@H](CC(=O)O)NC(=O)[C@H](CCCCN)NC(=O)[C@H](Cc1ccccc1)NC(=O)[C@H](C)N)C(=O)N[C@@H](Cc1ccccc1)C(=O)N[C@H](C(=O)N[C@H](C(=O)N[C@@H](Cc1ccc(O)cc1)C(=O)O)C(C)C)C(C)C`, the pIC50 on HLA-A1 (A*0101) is < 4.70; on A*3002, 7.43.
Turning to `CC[C@H](C)[C@H](NC(=O)[C@H](C)NC(=O)[C@H](CS)NC(=O)[C@H](CCC(=O)O)NC(=O)[C@H](CCSC)NC(=O)[C@H](CCCNC(=N)N)NC(=O)[C@@H](NC(=O)[C@@H](N)CC(C)C)[C@@H](C)CC)C(=O)N[C@@H](CCSC)C(=O)N[C@@H](Cc1ccc(O)cc1)C(=O)N[C@H](C(=O)N[C@@H](C)C(=O)N[C@@H](CCCNC(=N)N)C(=O)N[C@@H](CCC(N)=O)C(=O)N[C@@H](CCSC)C(=O)O)[C@@H](C)O` [Peptide 90.0022], the pIC50 on DRB1*0301 was 6.78.
For `CC[C@H](C)[C@H](NC(=O)[C@H](CC(C)C)NC(=O)[C@H](CCC(N)=O)NC(=O)[C@H](CC(=O)O)NC(=O)[C@H](C)NC(=O)[C@@H](NC(=O)CN)[C@@H](C)O)C(=O)N[C@@H](Cc1c[nH]cn1)C(=O)N[C@@H](CC(C)C)C(=O)N[C@@H](Cc1ccc(O)cc1)C(=O)O` [Peptide 9018.0023], at A*2902, the pIC50 was 6.70.
